In PubChem BioAssay AID651664 (NMMLSC, 2012):
The entries are a selection whose mix differs from that of the whole data set. The source made the active and inactive calls.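 Rule for the calls: active = inhibition of granule release above a set limit; inactive = the rest.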

Test: inhibitors of lytic granule exocytosis, flow cytometry, TALL-104 cells, validation set (AID 651664)
Conditions: TALL-104 LAMP-1 externalization, at 15.2 µM, stronger effect = higher value, stimulated with thapsigargin and PMA

Row | SMILES | inhibition
1 | COC(=O)c1cc2c(s1)N=C(c1ccccc1)N(C)P2(=O)N1CCOCC1 (configuration not stated) | inactive: -2.3%
2 | CC1(CBr)Cn2c(nc3ccccc3c2=O)S1 (configuration not stated) | inactive: 0.9%
